In paper PMC6268262, “Improved Antileishmanial Activity of Dppz through Complexation with Antimony(III) and Bismuth(III): Investigation of the Role of the Metal” (Molecules, 2012):

System: mouse peritoneal macrophages
Test: Cytotoxicity assay against peritoneal macrophages (MTT)
Assay type: cell-based
Conditions: 24 h, read-out: CC50: concentration of dppz which is cytotoxic against 50% of macrophages
Description: The concentration of studied compounds which is cytotoxic to 50% of the macrophages (CC50) was determined by 3-(4,5-dimethylthiazol-2-yl)-2,5 diphenyltetrazolium bromide (MTT) method according to Mosmann. Macrophages were obtained by lavage of peritoneal cavity of mice with 10 mL cold RPMI without FBS. After washing, the cell suspension (4.0 × 10^6/mL) was seeded (0.1 mL) in 96-well flat bottom plates. Macrophages were allowed to adhere for 2 h and non-adherent cells were removed by washing with RPMI. Then, the studied compounds were added to the wells at concentrations ranging from 1 to 20 μM and the cells were further cultured in RPMI-1640 supplemented with 10% FBS for 24 h at 37 °C in a humidified 5% CO2 atmosphere. Thereafter, the medium was replaced with fresh RPMI containing 0.5 mg/mL of MTT and the plates were incubated for additional 4 h. Supernatants were aspirated and the formazan crystals formed were dissolved in 100 μL of DMSO. After 15 min of incubation at room temperature, absorbance of solubilized MTT formazan product was spectrophotometrically measured at 570 nm.
The IC50 and CC50 values were calculated by nonlinear regression using the software GraphPad Prism 5.0. The acceptable level of significance was 95% (p < 0.05).

## [Bi(dppz)Cl3] [complex 2]
  CC50: 4.8 µM
